From PubChem BioAssay AID2058 (Sanford-Burnham Center for Chemical Genomics, 2009)
Only a part is listed here, and it is no random draw. Potency and affinity values are given separately. Active and inactive are the calls of the source.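 Rule for the calls: active = inhibition of at least 50% with at least 30 cells and total cytoplasm GFP at most 10,000,000; inconclusive = under 30 cells or total GFP of 10,000,000 plus; inactive = the rest.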

Chains of the proteins cited; added tags and fusions are not shown.
UniProt Q9HC97, whole entry: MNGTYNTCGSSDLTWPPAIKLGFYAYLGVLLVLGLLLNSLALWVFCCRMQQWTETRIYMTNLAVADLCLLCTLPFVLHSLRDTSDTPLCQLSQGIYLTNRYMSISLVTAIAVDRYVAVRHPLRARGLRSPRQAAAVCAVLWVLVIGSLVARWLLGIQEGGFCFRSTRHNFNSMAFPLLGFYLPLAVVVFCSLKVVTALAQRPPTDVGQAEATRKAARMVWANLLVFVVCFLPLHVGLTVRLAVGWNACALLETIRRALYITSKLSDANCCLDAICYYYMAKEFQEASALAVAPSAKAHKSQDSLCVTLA

Target: G-protein coupled receptor 35 (Homo sapiens) (UniProt Q9HC97)
Test: GPR35 antagonists blocking zaprinast-driven arrestin recruitment, primary screen, imaging, U2OS, beta-arrestin-GFP, zaprinast agonist (AID 2058)
Conditions: U2OS GPR35 beta-arrestin-GFP translocation imaging, zaprinast antagonism; at 10 µM; active compounds read high

Row | Structure (SMILES) | inhibition
1 | CCN(CC)CC(O)COC(=O)C(O)(c1ccccc1)C1CCCCC1 (centres undefined) | inactive: 19.6%
2 | COc1ccc(OP(C)(=O)Nc2ccc(Br)cc2)cc1 (centres undefined) | inactive: -12.3%
3 | COc1ccccc1OP(C)(=O)Nc1c(C)n(C)n(-c2ccccc2)c1=O (centres undefined) | inactive: -1%
4 | O=C(OCCCN1CCCC1)C(O)(c1ccccc1)C1CCCCC1 (centres undefined) | inactive: 4.4%
5 | CP(=O)(Oc1ccccc1)N1CCOC1=O (centres undefined) | inactive: 8.8%
6 | CCc1ccc(OP(C)(=O)Nc2cccnc2)cc1 (centres undefined) | inactive: -1.5%
7 | CCOC(=O)c1ccc(NP(C)(=O)Oc2ccc(Cl)cc2)cc1 (centres undefined) | inactive: -20.3%
8 | CP(=O)(OC12CC3CC(CC(C3)C1)C2)OC12CC3CC(CC(C3)C1)C2 | inactive: 2.4%
9 | Cc1nc2ccc3ccccc3c2o1.O=[N+]([O-])c1cc([N+](=O)[O-])c(O)c([N+](=O)[O-])c1 | inactive: 6.3%
10 | CP(=O)(OCCOc1ccccc1)OCCOc1ccccc1 | inactive: -4.2%
11 | CP(=O)(Nc1ccc(Cl)cc1Cl)Oc1ccccc1 (centres undefined) | inactive: 8.7%
12 | Cc1cc(C)cc(OP(C)(=O)Nc2cccc(C(F)(F)F)c2)c1 (centres undefined) | inactive: 10.2%
13 | COc1ccccc1OP(C)(=O)Nc1ccc(C)c(C)c1 (centres undefined) | inactive: 3.9%
14 | COc1ccc(OP(C)(=O)Nc2ccccc2Br)cc1 (centres undefined) | inactive: -1.5%
15 | O=[N+]([O-])c1cc([N+](=O)[O-])c(Nc2ccccn2)c([N+](=O)[O-])c1 | inactive: 14.5%
16 | Cc1c(NP(C)(=O)Oc2ccc(C(C)C)cc2)c(=O)n(-c2ccccc2)n1C (centres undefined) | inactive: -8.3%
17 | CP(=O)(Nc1ccccn1)Oc1ccccc1 (centres undefined) | inactive: 13.9%
18 | COc1ccccc1OP(C)(=O)Nc1ccc(C)cc1C (centres undefined) | inactive: 17%
19 | CCc1ccc(OP(C)(=O)O)cc1 | inactive: 1.4%
20 | COc1ccccc1OP(C)(=O)Nc1ccc(Br)cc1 (centres undefined) | inactive: 9.3%
21 | COc1ccc(OP(C)(=O)Nc2ccccn2)cc1 (centres undefined) | inactive: 0.9%
22 | CN(C)CCOC(=O)C(O)(c1ccccc1)C1CCCC1 (centres undefined) | inactive: -5.8%
23 | CCN(CC)CCCOC(=O)C(O)(c1ccccc1)c1ccccc1 | inactive: -6.2%
24 | COc1ccccc1OP(C)(=O)Nc1ccc(C)cc1 (centres undefined) | inactive: 9.1%
25 | Cc1ccc(NP(C)(=O)Oc2ccccc2)c(C)c1 (centres undefined) | inactive: -1.6%
26 | CCOC(=O)c1ccc(NP(C)(=O)Oc2ccccc2)cc1 (centres undefined) | inactive: 6.2%
27 | Cc1cc(C)cc(OP(C)(N)=O)c1 (centres undefined) | inactive: 7.9%
28 | COc1ccccc1OP(C)(=O)Nc1cc(Cl)ccc1C (centres undefined) | inactive: 13.3%
29 | COc1ccc(OP(C)(=O)Nc2cccc(F)c2)cc1 (centres undefined) | inactive: -23.6%
